Test results from ChEMBL document CHEMBL4339194 (J Med Chem, 2019).
Calls of active or inactive are those of the source. The calls are words filed in the database; no cut-off is given here.

Amino acid sequences for entries named in this document (tags omitted).
UniProt P35222, whole entry: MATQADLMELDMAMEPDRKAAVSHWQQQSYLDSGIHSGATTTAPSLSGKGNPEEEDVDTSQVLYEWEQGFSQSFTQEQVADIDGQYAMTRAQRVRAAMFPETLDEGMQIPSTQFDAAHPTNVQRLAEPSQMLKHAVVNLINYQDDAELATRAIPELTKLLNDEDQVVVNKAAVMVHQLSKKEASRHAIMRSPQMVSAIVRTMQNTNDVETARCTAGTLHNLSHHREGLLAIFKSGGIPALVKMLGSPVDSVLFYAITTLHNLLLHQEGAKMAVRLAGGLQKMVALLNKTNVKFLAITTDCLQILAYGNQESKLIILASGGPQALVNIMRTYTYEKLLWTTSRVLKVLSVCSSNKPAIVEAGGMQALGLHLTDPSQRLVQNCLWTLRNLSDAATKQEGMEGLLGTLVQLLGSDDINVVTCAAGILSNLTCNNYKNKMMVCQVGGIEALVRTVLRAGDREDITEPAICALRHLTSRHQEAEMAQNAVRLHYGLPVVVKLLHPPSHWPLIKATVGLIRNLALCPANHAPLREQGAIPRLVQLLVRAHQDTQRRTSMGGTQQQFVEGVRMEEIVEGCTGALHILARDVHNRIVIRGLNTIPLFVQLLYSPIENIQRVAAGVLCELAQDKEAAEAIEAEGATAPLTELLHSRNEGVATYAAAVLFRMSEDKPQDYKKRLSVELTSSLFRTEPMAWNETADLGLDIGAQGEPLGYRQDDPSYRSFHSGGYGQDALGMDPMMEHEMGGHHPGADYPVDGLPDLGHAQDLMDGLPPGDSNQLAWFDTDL

What was measured:
Catenin beta-1 = Catenin beta-1 (Homo sapiens, UniProt P35222)
MDA-MB-231 [1] = settings: Homo sapiens, 5 uM
MDA-MB-231 [2] = settings: Homo sapiens, 5 uM; remark: listed apart in the source

Row | Compound | IC50 (Catenin beta-1) [µM] | other results
1 | COC(=O)[C@H](CCC(=O)O)NC(=O)[C@H](CC(=O)O)NC(=O)[C@H](Cc1ccc2ccccc2c1)NC(=O)c1cc2cc(Br)ccc2[nH]1 | 62 | 
2 | COC(=O)[C@H](CCC(=O)O)NC(=O)[C@H](CC(=O)O)NC(=O)[C@H](Cc1ccc2ccccc2c1)NC(=O)c1cc2cc(Cl)cc(Cl)c2[nH]1 | 38 | 
3 | O=C(O)CC[C@H](NC(=O)[C@H](CC(=O)O)NC(=O)[C@H](Cc1ccc2ccccc2c1)NC(=O)c1cc2cc(Cl)ccc2[nH]1)C(=O)Nc1cccc(Cl)c1 | 12 | 
4 | O=C(O)CC[C@H](NC(=O)[C@H](CC(=O)O)NC(=O)[C@H](Cc1ccc2ccccc2c1)NC(=O)c1cc2cc(Cl)ccc2[nH]1)C(=O)Nc1cccc(OC(F)(F)F)c1 | 8.5 | 
5 | O=C(O)CC[C@H](NC(=O)[C@H](CC(=O)O)NC(=O)[C@H](Cc1ccc2ccccc2c1)NC(=O)c1cc2cc(Cl)ccc2[nH]1)C(=O)NCc1ccccc1 | 30 | 
6 | O=C(O)CC[C@H](NC(=O)[C@H](CC(=O)O)NC(=O)[C@H](Cc1ccc2ccccc2c1)NC(=O)c1cc2cc(Cl)ccc2[nH]1)C(=O)Nc1ccccc1F | 14 | 
7 | O=C(O)CC[C@H](NC(=O)[C@H](CC(=O)O)NC(=O)[C@H](Cc1ccc2ccccc2c1)NC(=O)c1cc2cc(Cl)ccc2[nH]1)C(=O)Nc1ccc2c(c1)OCO2 | 9.8 | 
8 | COc1ccc(C[C@H](NC(=O)c2cc3cc(Cl)ccc3[nH]2)C(=O)N[C@@H](CC(=O)O)C(=O)N[C@@H](CCC(=O)O)C(=O)Nc2ccccc2)cc1 | 99 | 
9 | CC(C)C[C@H](NC(=O)c1cc2cc(Cl)ccc2[nH]1)C(=O)N[C@@H](CC(=O)O)C(=O)N[C@@H](CCC(=O)O)C(=O)Nc1ccccc1 | 273 | 
10 | O=C(O)CC[C@H](NC(=O)[C@H](CC(=O)O)NC(=O)[C@H](Cc1ccc2ccccc2c1)NC(=O)c1cc2cc(Cl)ccc2[nH]1)C(=O)Nc1cccc(F)c1 | 13 | 
11 | COC(=O)[C@H](CCC(=O)O)NC(=O)[C@H](CC(=O)O)NC(=O)[C@H](Cc1ccc2ccccc2c1)NC(=O)c1cc2cc(F)ccc2[nH]1 | 349 | 
12 | O=C(O)CC[C@H](NC(=O)[C@H](CC(=O)O)NC(=O)[C@H](Cc1ccccc1Cl)NC(=O)c1cc2cc(Cl)ccc2[nH]1)C(=O)Nc1ccccc1 | 55 | 
13 | O=C(O)CC[C@H](NC(=O)[C@H](CC(=O)O)NC(=O)[C@H](Cc1ccc2ccccc2c1)NC(=O)c1cc2cc(Cl)ccc2[nH]1)C(=O)Nc1ccccc1 | 13 | 
14 | NC(=O)C[C@H](NC(=O)[C@H](Cc1ccc2ccccc2c1)NC(=O)c1cc2cc(Cl)ccc2[nH]1)C(=O)N[C@@H](Cc1nn[nH]n1)C(=O)Nc1ccc(OC(F)(F)F)cc1 | 19 | 
15 | O=C(O)CC[C@H](NC(=O)[C@H](CC(=O)O)NC(=O)[C@H](Cc1ccc2ccccc2c1)NC(=O)c1cc2cc(Cl)ccc2[nH]1)C(=O)NCCc1ccccc1 | 35 | 
16 | COC(=O)[C@H](CCC(=O)O)NC(=O)[C@H](CC(=O)O)NC(=O)[C@H](Cc1ccc2ccccc2c1)NC(=O)c1cc2cc(C(F)(F)F)ccc2[nH]1 | 47 | 
17 | COC(=O)[C@H](CCC(=O)O)NC(=O)[C@H](CC(=O)O)NC(=O)[C@H](Cc1ccc2ccccc2c1)NC(=O)c1cc2c(Cl)cc(Cl)cc2[nH]1 | 17 | 
18 | O=C(O)CC[C@H](NC(=O)[C@H](CC(=O)O)NC(=O)[C@H](Cc1cccc2ccccc12)NC(=O)c1cc2cc(Cl)ccc2[nH]1)C(=O)Nc1ccccc1 | 11 | 
19 | O=C(O)CC[C@H](NC(=O)[C@H](Cc1nn[nH]n1)NC(=O)[C@H](Cc1ccc2ccccc2c1)NC(=O)c1cc2c(Cl)cc(Cl)cc2[nH]1)C(=O)Nc1ccc(OC(F)(F)F)cc1 | 1.7 | 
20 | COc1cccc(NC(=O)[C@@H](CCC(=O)O)NC(=O)[C@H](CC(=O)O)NC(=O)[C@H](Cc2ccc3ccccc3c2)NC(=O)c2cc3cc(Cl)ccc3[nH]2)c1 | 39 | 
21 | COC(=O)[C@H](CCC(=O)O)NC(=O)[C@H](CC(=O)O)NC(=O)[C@H](Cc1ccc2ccccc2c1)NC(=O)c1cc2cc(Cl)ccc2[nH]1 | 45 | 
22 | NC(=O)C[C@H](NC(=O)[C@H](Cc1ccc2ccccc2c1)NC(=O)c1cc2cc(Cl)ccc2[nH]1)C(=O)N[C@@H](CCC(=O)O)C(=O)Nc1ccc(OC(F)(F)F)cc1 | 42 | 
23 | O=C(O)CC[C@H](NC(=O)[C@H](CC(=O)O)NC(=O)[C@H](Cc1ccc2ccccc2c1)NC(=O)c1cc2cc(Cl)ccc2[nH]1)C(=O)Nc1ccc(C(F)(F)F)cc1 | 7.3 | 

Row | Compound | IC50 (Catenin beta-1) [µM] | other results
24 | COC(=O)[C@H](CCC(=O)O)NC(=O)[C@H](CC(=O)O)NC(=O)[C@H](Cc1ccc2ccccc2c1)NC(=O)c1cc2c(Cl)cccc2[nH]1 | 60 | 
25 | COC(=O)[C@H](CCC(=O)O)NC(=O)[C@H](CC(=O)O)NC(=O)[C@H](Cc1ccc2ccccc2c1)NC(=O)c1cc2cc([N+](=O)[O-])ccc2[nH]1 | 67 | 
26 | N#Cc1ccc(C[C@H](NC(=O)c2cc3cc(Cl)ccc3[nH]2)C(=O)N[C@@H](CC(=O)O)C(=O)N[C@@H](CCC(=O)O)C(=O)Nc2ccccc2)cc1 | 79 | 
27 | COc1ccc(NC(=O)[C@H](CCC(=O)O)NC(=O)[C@H](CC(=O)O)NC(=O)[C@H](Cc2ccc3ccccc3c2)NC(=O)c2cc3cc(Cl)ccc3[nH]2)cc1 | 10 | 
28 | CC(C)CCNC(=O)[C@H](CCC(=O)O)NC(=O)[C@H](CC(=O)O)NC(=O)[C@H](Cc1ccc2ccccc2c1)NC(=O)c1cc2cc(Cl)ccc2[nH]1 | 33 | 
29 | O=C(O)CC[C@H](NC(=O)[C@H](CC(=O)O)NC(=O)[C@H](Cc1ccc2ccccc2c1)NC(=O)c1cc2cc(Cl)ccc2[nH]1)C(=O)Nc1ccc(F)cc1 | 17 | 
30 | O=C1[C@H](Cc2ccc(O)cc2)N2C(=O)CCN(C(=O)NCc3ccccc3)[C@H]2CN1Cc1cccc2ccccc12 |  | inhibition (MDA-MB-231 [1]): Active; inhibition (MDA-MB-231 [2]): Active
31 | COc1cccc(NC(=O)[C@H](CCC(=O)O)NC(=O)[C@H](CC(=O)O)NC(=O)[C@@H](Cc2ccc3ccccc3c2)NC(=O)c2cc3cc(Cl)ccc3[nH]2)c1 | 31 | 
32 | O=C(O)CC[C@H](NC(=O)[C@H](CC(=O)O)NC(=O)[C@H](Cc1ccc2ccccc2c1)NC(=O)c1cc2cc(Cl)ccc2[nH]1)C(=O)Nc1ccccc1Cl | 38 | 
33 | O=C(O)CC[C@H](NC(=O)[C@H](CC(=O)O)NC(=O)[C@H](Cc1ccc(Cl)cc1)NC(=O)c1cc2cc(Cl)ccc2[nH]1)C(=O)Nc1ccccc1 | 44 | 
34 | O=C(O)CC[C@H](NC(=O)[C@H](CC(=O)O)NC(=O)[C@H](Cc1ccc2ccccc2c1)NC(=O)c1cc2cc(Cl)ccc2[nH]1)C(=O)Nc1ccc(Cl)cc1 | 11 | 
35 | O=C(O)CC[C@H](NC(=O)[C@H](CC(=O)O)NC(=O)[C@H](Cc1ccc2ccccc2c1)NC(=O)c1cc2cc(Cl)ccc2[nH]1)C(=O)Nc1ccc(OC(F)(F)F)cc1 | 7.5 | 
36 | COc1cc(NC(=O)[C@H](CCC(=O)O)NC(=O)[C@H](CC(=O)O)NC(=O)[C@H](Cc2ccc3ccccc3c2)NC(=O)c2cc3cc(Cl)ccc3[nH]2)cc(C(F)(F)F)c1 | 10 | 
37 | O=C(O)CC[C@H](NC(=O)[C@H](CC(=O)O)NC(=O)[C@H](Cc1ccc2ccccc2c1)NC(=O)c1cc2cc(Cl)ccc2[nH]1)C(=O)Nc1cccc(C(F)(F)F)c1 | 8.9 | 
38 | NC(=O)CC[C@H](NC(=O)[C@H](CC(=O)O)NC(=O)[C@H](Cc1ccc2ccccc2c1)NC(=O)c1cc2cc(Cl)ccc2[nH]1)C(=O)Nc1ccc(OC(F)(F)F)cc1 | 26 | 
39 | O=C(O)CC[C@H](NC(=O)[C@H](CC(=O)O)NC(=O)[C@H](Cc1ccc(Cl)c(Cl)c1)NC(=O)c1cc2cc(Cl)ccc2[nH]1)C(=O)Nc1ccccc1 | 14 | 
40 | COc1cc(NC(=O)[C@H](CCC(=O)O)NC(=O)[C@H](CC(=O)O)NC(=O)[C@H](Cc2ccc3ccccc3c2)NC(=O)c2cc3cc(Cl)ccc3[nH]2)cc(OC)c1 | 13 | 
41 | COc1cccc(NC(=O)[C@H](CCC(=O)O)NC(=O)[C@H](CC(=O)O)NC(=O)[C@H](Cc2ccc3ccccc3c2)NC(=O)c2cc3cc(Cl)ccc3[nH]2)c1 | 9.3 | 
42 | COc1cccc(NC(=O)[C@H](CCC(=O)O)NC(=O)[C@@H](CC(=O)O)NC(=O)[C@H](Cc2ccc3ccccc3c2)NC(=O)c2cc3cc(Cl)ccc3[nH]2)c1 | 26 | 
43 | NC(=O)CC[C@H](NC(=O)[C@H](Cc1nn[nH]n1)NC(=O)[C@H](Cc1ccc2ccccc2c1)NC(=O)c1cc2cc(Cl)ccc2[nH]1)C(=O)Nc1ccc(OC(F)(F)F)cc1 | 16 | 
44 | O=C(O)C[C@H](NC(=O)[C@H](Cc1ccc2ccccc2c1)NC(=O)c1cc2cc(Cl)ccc2[nH]1)C(=O)N[C@@H](Cc1nn[nH]n1)C(=O)Nc1ccc(OC(F)(F)F)cc1 | 5.9 | 
45 | CCOC(=O)CC[C@H](NC(=O)[C@H](Cc1nn[nH]n1)NC(=O)[C@H](Cc1ccc2ccccc2c1)NC(=O)c1cc2cc(Cl)ccc2[nH]1)C(=O)Nc1ccc(OC(F)(F)F)cc1 | 21 | 
46 | O=C(O)CC[C@H](NC(=O)[C@H](CC(=O)O)NC(=O)[C@H](Cc1ccc(C(F)(F)F)cc1)NC(=O)c1cc2cc(Cl)ccc2[nH]1)C(=O)Nc1ccccc1 | 37 | 
